Measured values reported in patent US20210046188A1.

Chains of the proteins cited; added tags and fusions are not shown. Residues count along the entry.
UniProt P32301, 22-463: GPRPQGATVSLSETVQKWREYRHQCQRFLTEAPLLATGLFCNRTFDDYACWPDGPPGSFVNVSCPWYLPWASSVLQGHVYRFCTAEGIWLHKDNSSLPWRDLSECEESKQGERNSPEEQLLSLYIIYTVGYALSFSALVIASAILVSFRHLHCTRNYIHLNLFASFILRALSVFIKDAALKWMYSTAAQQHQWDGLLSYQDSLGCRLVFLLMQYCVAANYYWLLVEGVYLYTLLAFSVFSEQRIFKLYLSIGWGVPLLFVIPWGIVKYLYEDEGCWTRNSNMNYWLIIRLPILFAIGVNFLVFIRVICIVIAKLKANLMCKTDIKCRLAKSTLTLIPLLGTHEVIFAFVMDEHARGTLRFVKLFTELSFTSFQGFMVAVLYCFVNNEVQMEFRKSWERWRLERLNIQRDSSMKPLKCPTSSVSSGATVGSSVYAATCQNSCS

Biological target: rat GLP-1R (rat) (UniProt P32301)
Assay: cell-based or functional assay

## 66.2 kDa EG9 exendin-C-POEGMA conjugate (from UniProt P26349 48-86) (peptide)
  EC50 (nM), cAMP response in BHK cells expressing GLP-1R: 2.1 nM
